For experiment [1], the target named is T1, ROR1-HIS (Homo sapiens (Human), UniProt Q01973 30-406).
T1 construct: His-tagged ROR1 fusion protein made in 293F cells and purified on a nickel column; also called ROR1-HIS抗原; ROR1 HIS蛋白
The experiment in a line: ELISA, ROR1-HIS coated at 1 μg/ml, 100 μl/well.

By UniProt entry, the sequences of proteins in these tests, tags left out. Chains listed by the source or under a name are the forms on record and can include a tag or linker.
UniProt Q01973, other isoform, or with tags, fused parts or gaps limits assumed: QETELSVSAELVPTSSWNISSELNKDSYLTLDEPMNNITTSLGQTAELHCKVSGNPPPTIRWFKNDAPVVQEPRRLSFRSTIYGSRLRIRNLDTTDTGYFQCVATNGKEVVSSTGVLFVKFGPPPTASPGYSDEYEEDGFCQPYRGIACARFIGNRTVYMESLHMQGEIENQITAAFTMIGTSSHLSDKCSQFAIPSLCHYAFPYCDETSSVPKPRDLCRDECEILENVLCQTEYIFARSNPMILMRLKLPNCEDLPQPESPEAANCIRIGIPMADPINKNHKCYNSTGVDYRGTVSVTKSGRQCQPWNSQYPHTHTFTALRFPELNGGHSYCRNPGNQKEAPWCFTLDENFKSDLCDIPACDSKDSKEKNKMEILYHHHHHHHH

The target of experiment [2] is T1, ROR1-HIS. The experiment in a line: BLI, ForteBio Octet.

B1: 6G3重组嵌合抗体 (antibody, V domains shown)
VH: EVKLVESGGGLVKPGGSLKLSCAASGFTFSSYALSWVRQTPEKRLEWVASINRGVTTYYPDSVKGRFTISRDNARNILYLQMSSLRSEDTAMYYCARYDGNYEGMDYWGQGTSVTVSS
VL: DIKMTQSPSSMFASLGERVTITCKASQDINSYLSWFQQKPGKSPKTLIYRANRLIDGVPSRFSGSGSGQDYSLTISSLEYEDMGIYYCLQYDEFPYTFGGGTKLEIK
Take B1: the response in the experiment with ROR1-HIS [1] was half-maximal at 12.6 ng/mL (EC50). In the experiment with ROR1-HIS [2], this molecule gave a Kd of 10.8 nM, an off-rate constant (koff) of 0.000765 s⁻¹ and a kon of 71100 M⁻¹ s⁻¹.

B2: 10F6重组嵌合抗体 (antibody, V domains shown)
VH: EVKLQESGPSLVKPGASVKISCKTSGYTFTECAMHWVKQSHGKSLEWIGGINPNNGGTTYNQKFKDKATLTVDKSSSTAYMDLRSLTSEDSAVYYCAREAIYYDYAMDYWGQGTSVTVSS
VL: not shown
For the molecule B2, the EC50 in the experiment with ROR1-HIS [1] worked out at 1.33 ng/mL. Also, in the experiment with ROR1-HIS [2], the Kd came out at 10.2 nM, the koff amounted to 0.000404 s⁻¹ and the kon came to 39500 M⁻¹ s⁻¹.

The values are drawn from patent CN116333122A (SIGE SUZHOU BIOTECHNOLOGY CO LTD, dated 2023).
